Results on 88 molecules are retold here after PubChem BioAssay AID2130 (The Scripps Research Institute Molecular Screening Center, 2009).

The chains behind the UniProt entries cited, without tags or fusion partners.
UniProt Q9Y570, whole entry: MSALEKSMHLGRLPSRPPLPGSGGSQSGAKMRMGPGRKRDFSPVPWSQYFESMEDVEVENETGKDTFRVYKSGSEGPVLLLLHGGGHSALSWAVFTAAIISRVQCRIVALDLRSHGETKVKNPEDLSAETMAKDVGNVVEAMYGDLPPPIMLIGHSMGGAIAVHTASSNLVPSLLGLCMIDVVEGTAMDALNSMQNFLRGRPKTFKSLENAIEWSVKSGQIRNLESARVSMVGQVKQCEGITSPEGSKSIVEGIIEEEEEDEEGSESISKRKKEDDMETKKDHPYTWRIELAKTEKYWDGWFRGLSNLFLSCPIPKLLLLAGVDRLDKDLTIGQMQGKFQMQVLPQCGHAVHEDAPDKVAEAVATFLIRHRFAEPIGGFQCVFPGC

What is called inhibition is the change of the read-out against control, counted positive when it falls.

The structures appear in SMILES notation. This is a selection; strong and weak results do not stand in their true shares. Some salts and complexes are drawn in separate pieces, as the source files them; their charges need not balance. Calls of active or inactive are those of the source.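 How the source made its calls: active means inhibition above the campaign mean of all compounds plus 3 SD (cut at about 26% in these data); inactive means the rest.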

This experiment concerns the target Protein phosphatase methylesterase 1 (Homo sapiens) (UniProt Q9Y570). The experiment in a line: human PME-1 methylesterase blockers – biochemical, fluorescence polarization, FP-Rh probe, HTS, primary screen (AID 2130).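 Further: competitive labeling of PME-1 active site by serine hydrolase directed probe; 0% = PME-1 with DMSO and 100% = wells lacking PME-1 enzyme; inhibitors block probe labeling so polarization falls and inhibition rises.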 Particulars: recombinant PME-1, FP-Rh probe fluorescence polarization; at 5.9 µM; stronger effect = higher value.
Consider `O=C(O)c1cccc(Nc2c([N+](=O)[O-])cc([N+](=O)[O-])cc2[N+](=O)[O-])c1`, for which the inhibition is inactive: -2.4%.

On to `CC1=NCCc2c1[nH]c1ccccc21.O=[N+]([O-])c1cc([N+](=O)[O-])c(O)c([N+](=O)[O-])c1`, for which the inhibition is inactive: 0.22%.

For the molecule `COc1ccccc1OP(C)(=O)Nc1cccc(Br)c1` (stereo not drawn), the inhibition was inactive: 3.09%.

As to `Cc1cc(C)cc(OP(C)(=O)Nc2ccc(C)cc2C)c1` (stereo not drawn), the inhibition was inactive: 6.61%.

Regarding `CCOC(=O)c1ccc(NP(C)(=O)Oc2cc(C)cc(C)c2)cc1` (stereo not drawn), the inhibition was inactive: -7.25%.

For the molecule `Cc1cc(C)cc(OP(C)(=O)Nc2ccccn2)c1` (stereo not drawn), the inhibition is inactive: -9.47%.

Consider `CP(=O)(Nc1cccc(Br)c1)Oc1ccccc1` (stereo not drawn), for which the inhibition is inactive: 12.3%.

With `Cc1ccc(C)c(NP(C)(=O)Oc2ccccc2)c1` (stereo not drawn), the inhibition was inactive: 14.1%.

Turning to `O=[N+]([O-])c1cc([N+](=O)[O-])c(-n2nnc3ccccc32)c([N+](=O)[O-])c1`, the inhibition was inactive: -1.95%.

As for `O=[N+]([O-])c1cc([N+](=O)[O-])c(-c2cnn(-c3ccccc3)c2)c([N+](=O)[O-])c1`, the inhibition is inactive: 10.7%.

`Cc1nc2ccc3ccccc3c2s1.O=[N+]([O-])c1cc([N+](=O)[O-])c(O)c([N+](=O)[O-])c1`: the inhibition is inactive: -2.83%.

With `CCOC(=O)C(CC)C1=NC(C)(C)Cc2ccccc21.O=[N+]([O-])c1cc([N+](=O)[O-])c(O)c([N+](=O)[O-])c1` (stereo not drawn), the inhibition was inactive: -0.71%.

As to `CC1=C2N=C(C=C3N=C(C(C)=C4[N-][C@@](C)([C@@H]5N=C1[C@](C)(CCC(=O)NC[C@@H](C)OP(=O)([O-])O[C@H]1[C@@H](O)[C@@H](n6cnc7cc(C)c(C)cc76)O[C@@H]1CO)[C@H]5CC(N)=O)[C@@](C)(CC(N)=O)[C@@H]4CCC(N)=O)[C@@](C)(CC(N)=O)[C@@H]3CCC(N)=O)C(C)(C)[C@@H]2CCC(N)=O.[C-]#N.[Co+3]`, the inhibition was inactive: 5.58%.

In the case of `O=[N+]([O-])c1cc([N+](=O)[O-])c(Nc2nnnn2CCO)c([N+](=O)[O-])c1`, the inhibition is inactive: -4.32%.

In the case of `CN1CCCCC1COC(=O)C1(O)c2ccccc2CCc2ccccc21` (stereo not drawn), the inhibition was inactive: -1.47%.

For `COc1ccccc1OP(C)(=O)Nc1c(C)cccc1C` (stereo not drawn), the inhibition was active: 37.3%.

Consider `CCCOc1ccc(NP(C)(=O)Oc2ccc(Cl)cc2)cc1` (stereo not drawn), for which the inhibition was inactive: 12.5%.

As for `CP(=O)(Nc1ccc(SC(F)(F)F)cc1)Oc1ccccc1` (stereo not drawn), the inhibition was inactive: -0.09%.

With `CP(=S)(Nn1cnnc1)Oc1ccccc1` (stereo not drawn), the inhibition was inactive: -0.2%.

Take `COc1ccccc1OP(C)(=O)Nc1ccccc1` (stereo not drawn): the inhibition is inactive: 5.7%.

Consider `CP(=O)(Nc1ccccc1Br)Oc1ccccc1` (stereo not drawn), for which the inhibition was active: 60.7%.

In the case of `CP(=O)(Oc1ccccc1)OC(c1ccccc1)C(F)(F)F` (stereo not drawn), the inhibition is inactive: -3.83%.

Turning to `CP(=O)(Nc1ccc(SC(F)(F)F)cc1)Oc1ccc(Cl)cc1` (stereo not drawn), the inhibition was inactive: 19.2%.

As to `Cc1cccc(C)c1OP(C)(=O)Nc1ccc(SC(F)(F)F)cc1` (stereo not drawn), the inhibition was inactive: 2.41%.

Consider `Cc1cc(C)cc(OP(C)(=O)Nc2ccc(SC(F)(F)F)cc2)c1` (stereo not drawn), for which the inhibition is inactive: 9.09%.

For the molecule `CP(=O)(NC(=O)Nc1ccccc1)Oc1ccccc1` (stereo not drawn), the inhibition was inactive: 5.81%.

`CCc1ccc(OP(C)(=O)N2CCN(c3ccc([N+](=O)[O-])cc3)CC2)cc1` (stereo not drawn): the inhibition was inactive: 8.17%.

As to `CCOP(C)(=S)SCC(=O)NC(C)C(=O)O` (stereo not drawn), the inhibition was inactive: 2.45%.

Take `O=[N+]([O-])c1cc([N+](=O)[O-])c(O)c([N+](=O)[O-])c1.c1ccc(Oc2ccncc2)cc1`: the inhibition is inactive: -1.07%.

Consider `CCOC(=O)c1ccc(NP(C)(=O)Oc2ccc(OC)cc2)cc1` (stereo not drawn), for which the inhibition is inactive: 4.26%.

In the case of `CP(=O)(Nc1ccccn1)Oc1ccc(Cl)cc1` (stereo not drawn), the inhibition was inactive: 7.7%.

On to `CCN(CC)CCCOC(=O)C(O)(c1ccccc1)c1ccccc1`, for which the inhibition was inactive: 2.38%.

`O=[N+]([O-])c1cc([N+](=O)[O-])c(Nc2cccnc2)c([N+](=O)[O-])c1`: the inhibition is inactive: 15.5%.

Consider `Cc1cccc(C)c1OP(C)(N)=O` (stereo not drawn), for which the inhibition was inactive: 4.14%.

With `CC(C)(C)c1ccc(OP(C)(=O)Nc2ccc(SC(F)(F)F)cc2)cc1` (stereo not drawn), the inhibition was inactive: -1.97%.

`O=[N+]([O-])c1ccc2c(c1)C=Nc1ccccc1O2`: the inhibition is inactive: -1.17%.

Take `CCOC(=O)c1ccc(NP(C)(=O)Oc2ccccc2)cc1` (stereo not drawn): the inhibition was inactive: 11.4%.

In the case of `Cc1ccc(NP(C)(=O)Oc2ccccc2)c(C)c1` (stereo not drawn), the inhibition was inactive: 6.95%.

On to `COc1ccccc1OP(C)(=O)Nc1ccc(C)cc1` (stereo not drawn), for which the inhibition is inactive: -7.93%.

As for `COc1ccc(OP(C)(=O)Nc2cccc(F)c2)cc1` (stereo not drawn), the inhibition was inactive: -0.51%.

Regarding `COc1ccccc1OP(C)(=O)Nc1cc(Cl)ccc1C` (stereo not drawn), the inhibition was inactive: 4.17%.

For `Cc1cc(C)cc(OP(C)(N)=O)c1` (stereo not drawn), the inhibition is inactive: -1.61%.

With `Cc1cc(C)cc(OP(C)(=O)Nc2cccc(C(F)(F)F)c2)c1` (stereo not drawn), the inhibition was inactive: 3.66%.

For `COc1ccc(OP(C)(=O)Nc2ccccc2Br)cc1` (stereo not drawn), the inhibition was inactive: 4.34%.

Consider `COc1ccccc1OP(C)(=O)Nc1ccc(C)c(C)c1` (stereo not drawn), for which the inhibition is inactive: 2.45%.

Regarding `Cc1nc2ccc3ccccc3c2o1.O=[N+]([O-])c1cc([N+](=O)[O-])c(O)c([N+](=O)[O-])c1`, the inhibition is inactive: -6.31%.

As for `CP(=O)(Nc1ccc(Cl)cc1Cl)Oc1ccccc1` (stereo not drawn), the inhibition was inactive: 7.3%.

As for `CP(=O)(OCCOc1ccccc1)OCCOc1ccccc1`, the inhibition was inactive: -1.32%.

For the molecule `COc1ccccc1OP(C)(=O)Nc1ccc(Br)cc1` (stereo not drawn), the inhibition was inactive: -0.57%.

As for `CN(C)CCOC(=O)C(O)(c1ccccc1)C1CCCC1` (stereo not drawn), the inhibition is inactive: -5.44%.

For the molecule `COc1ccc(OP(C)(=O)Nc2ccccn2)cc1` (stereo not drawn), the inhibition was inactive: -8.07%.

In the case of `Cc1c(NP(C)(=O)Oc2ccc(C(C)C)cc2)c(=O)n(-c2ccccc2)n1C` (stereo not drawn), the inhibition was inactive: 2%.

As to `O=[N+]([O-])c1cc([N+](=O)[O-])c(Nc2ccccn2)c([N+](=O)[O-])c1`, the inhibition is inactive: 1.84%.

Turning to `CCc1ccc(OP(C)(=O)O)cc1`, the inhibition is inactive: -3.66%.

Take `COc1ccccc1OP(C)(=O)Nc1ccc(C)cc1C` (stereo not drawn): the inhibition is inactive: 1.31%.

Take `CP(=O)(Nc1ccccn1)Oc1ccccc1` (stereo not drawn): the inhibition was inactive: 5.39%.

For `COc1ccc(OP(C)(=O)Nc2ccc(Br)cc2)cc1` (stereo not drawn), the inhibition was inactive: 11%.

For the molecule `CCN(CC)CC(O)COC(=O)C(O)(c1ccccc1)C1CCCCC1` (stereo not drawn), the inhibition is inactive: 1.11%.

`CCc1ccc(OP(C)(=O)Nc2cccnc2)cc1` (stereo not drawn): the inhibition was inactive: 0%.

`CP(=O)(Oc1ccccc1)N1CCOC1=O` (stereo not drawn): the inhibition was inactive: 0.55%.

As for `O=C(OCCCN1CCCC1)C(O)(c1ccccc1)C1CCCCC1` (stereo not drawn), the inhibition is inactive: -1.94%.

As for `COc1ccccc1OP(C)(=O)Nc1c(C)n(C)n(-c2ccccc2)c1=O` (stereo not drawn), the inhibition is inactive: -0.76%.

With `CP(=O)(Nc1ccc(Cl)cc1)Oc1ccc(F)cc1` (stereo not drawn), the inhibition was inactive: 6.96%.

`COc1ccccc1OP(C)(=O)Nc1ccccc1Br` (stereo not drawn): the inhibition is inactive: 12.7%.

Take `CC(C)(C)c1ccc(OP(C)(=O)O)cc1`: the inhibition was inactive: 3.07%.

For the molecule `CN(C)C(=O)c1c([N+](=O)[O-])cc([N+](=O)[O-])cc1[N+](=O)[O-]`, the inhibition was inactive: 0.06%.

Regarding `Nc1ccc2c(ccc3cccnc32)n1.O=[N+]([O-])c1cc([N+](=O)[O-])c(O)c([N+](=O)[O-])c1`, the inhibition is inactive: 3.32%.

On to `CP(=O)(OC12CC3CC(CC(C3)C1)C2)OC12CC3CC(CC(C3)C1)C2`, for which the inhibition is inactive: 2.84%.

Take `CCOC(=O)c1ccc(NP(C)(=O)Oc2ccc(Cl)cc2)cc1` (stereo not drawn): the inhibition is active: 35%.

For the molecule `COc1ccc(OP(C)(=O)Nc2cccc(Br)c2)cc1` (stereo not drawn), the inhibition was inactive: -0.92%.

Consider `COc1ccc(NP(C)(=O)Oc2ccccc2OC)cc1` (stereo not drawn), for which the inhibition is inactive: 0.46%.

On to `CN(C)CCOC(=O)C(O)(c1ccccc1)C1CCCCC1` (stereo not drawn), for which the inhibition is inactive: 6.96%.

For `O=[N+]([O-])c1cc([N+](=O)[O-])c(NCC2CCS(=O)(=O)C2)c([N+](=O)[O-])c1` (stereo not drawn), the inhibition was inactive: 7.69%.

For the molecule `CP(=O)(Nc1ccc(SC(F)(F)F)cc1)Oc1ccc(F)cc1` (stereo not drawn), the inhibition is inactive: 2.49%.

For `CCOP(C)(=S)SCC(=O)NC(C)(CC)C(=O)O` (stereo not drawn), the inhibition is inactive: 3.93%.

Consider `CP(=O)(Nc1ccc2c(c1)OCCO2)Oc1ccccc1` (stereo not drawn), for which the inhibition is inactive: 5.48%.

`Cc1ccccc1NP(C)(=O)Nc1ccccc1C`: the inhibition is inactive: -0.93%.

Take `CC(C)c1ccc(OP(C)(=O)Nc2ccc(SC(F)(F)F)cc2)cc1` (stereo not drawn): the inhibition was inactive: -1.01%.

Turning to `CP(=O)(Nc1ccccc1F)Oc1ccccc1` (stereo not drawn), the inhibition was inactive: 12.2%.

Regarding `O=C(OCCN1CCN(CCOCc2ccccc2)CC1)C(O)(c1ccccc1)c1ccccc1`, the inhibition was inactive: -6.81%.

With `O=C(OC1CN2CCC1CC2)c1ccc([N+](=O)[O-])cc1` (stereo not drawn), the inhibition was inactive: 2.35%.

With `COc1ccc2c(c1O)-c1c(O)c(OC)cc3c1[C@H](C2)[N+](C)(C)CC3.O=[N+]([O-])c1cc([N+](=O)[O-])c([O-])c([N+](=O)[O-])c1[O-]`, the inhibition is inactive: -3.3%.

With `COc1ccc(OP(C)(=O)Nc2ccc(SC(F)(F)F)cc2)cc1` (stereo not drawn), the inhibition was inactive: -1.44%.

Consider `CCOC(=O)c1ccc(NP(C)(=O)Oc2ccc(F)cc2)cc1` (stereo not drawn), for which the inhibition was inactive: 24.3%.

Regarding `CCN(CC)CCCOC(=O)C(O)(c1ccccc1)C1CCCCC1` (stereo not drawn), the inhibition was inactive: 3.72%.

As for `CCCCCOc1ccc(NP(C)(=O)Oc2ccc(Cl)cc2Cl)cc1` (stereo not drawn), the inhibition was active: 64.1%.

On to `O=[N+]([O-])c1cc([N+](=O)[O-])c(OC2CCCCC2O)c([N+](=O)[O-])c1` (stereo not drawn), for which the inhibition is inactive: -1.25%.

For `CP(=O)(Nc1ccccc1)Oc1ccc(F)cc1` (stereo not drawn), the inhibition is inactive: 11%.
